Experimental data published in US10125125B2, “N-(heteroaryl)-sulfonamide derivatives useful as S100-inhibitors” (Active Biotech AB, priority 2013, dated 2018).
pIC50: −log10 of the molar value.

Sequences of proteins named here, by UniProt entry; tags and fusion partners are left off. A change or cut given only in a name is not applied to a line headed by its entry.
UniProt P06702: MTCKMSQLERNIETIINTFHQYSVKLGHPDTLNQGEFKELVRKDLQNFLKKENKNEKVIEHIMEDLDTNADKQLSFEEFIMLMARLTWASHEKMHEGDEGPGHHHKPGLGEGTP

Target: biotinylated human S100A9 : rhRAGE-Fc interaction (Homo sapiens (Human), UniProt P06702)
Assay: AlphaScreen inhibition assay, Biot-hS100A9:hRAGE-Fc (S100A9-RAGE inhibition assay)
Type: binding
From the text: FIG. 1 is a schematic representation of an assay of the inhibition of the interaction between biotinylated human S100A9 and human RAGE-Fc using a small molecule S100A9 binder.
Inhibition Assay, Biot-hS100A9:hRAGE-Fc
The AlphaScreen (Amplified Luminescent Proximity Homogeneous Assay) contains two types of beads, Alpha Donor beads and Acceptor beads (PerkinElmer). Upon laser excitation at 680 nm a photosensitizer in the Donor bead converts ambient oxygen to a more excited singlet state. The singlet oxygen molecule diffuses (maximum 200 nm) to react with a thioxene derivative in the Acceptor bead and generates a chemiluminescence reaction. Fluorophores in the Acceptor bead subsequently emit light at 520-620 nm which can be detected in the EnVision® Multilabel plate Reader (PerkinElmer). […]
In the AlphaScreen Inhibition Assay described here, protein A (Staphylococcus aureus) conjugated Acceptor beads are used together with streptavidin coated Donor beads (Perkin Elmer 6760617M). […] After an additional incubation the signal is measured. […]
Assay concentration of biotinylated hS100A9 and rhRAGE-Fc are batch dependent, and are determined and defined by separate cross-titration experiments using this AlphaScreen inhibition method to verify the optimal setup regarding signal strength and achievement of a defined inhibition with relevant reference compounds. […]

CC(CO)c1cnc(NS(=O)(=O)c2cnc(Cl)c(Br)c2)c(O)c1 (racemic) [Example 13, (+/−)-5-bromo-6-chloro-N-[3-hydroxy-5-(1-hydroxypropan-2-yl)pyridin-2-yl]pyridine-3-sulfonamide]
pIC50: 5.51
